An excerpt weighted towards active compounds, which were near 16% of everything screened.
miR-21 reporter – miR-21 reporter, rising signal | HeLa miR-21 FLuc reporter, luciferase, 48 h | Potency, µM (top dose mostly 38.3 µM), inactives show at the highest dose reporter change, positive = more light | 340,000 tested, under 10 active | AID 2288; active = well fitted rising curve with a large enough effect; inconclusive = small, poorly fitted or top-dose-only effect; inactive = no such curve, though single readings can be large or run the other way;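 note: % of control where 0% means no effect; miR-21 action dims this reporter so a rising signal means less miR-21 action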
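Compounds were titrated across several concentrations (up to approximately 40 uM) and incubated 48 hours with HeLa miR-21-FLuc reporter cells (miR-21 target sequence downstream of FLuc, endogenous miR-21). Readout was firefly luciferase luminescence after lytic detection reagent.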
TDP1 cell noCPT – qHTS for Inhibitors of human tyrosyl-DNA phosphodiesterase 1 (TDP1): qHTS in cells in absence of CPT. Potency, µM (highest dose often 46.2 µM), without a hit: at the top dose activity change, negative = growth inhibition, hits mostly inhibitors. DT40 Tdp1-/- hTDP1 cells, no CPT, ATP luminescence, 48 h. 15% of 420,000 active. AID 686978, 2013; also: potency is read from the fitted curve at half-maximal effect; % is scaled to controls: 0 for no effect and ±100 for the full control effect; nearly all actives have a fitted effect of over 55% in size
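Readout: luminescence from CellTiter-Glo after 30 min in the dark at RT. Cells: DT40 Tdp1-/- with stable hTDP1, 400/well. Exposure: compounds alone, ≥48 hr, 37 °C.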
uPA surface inh – inhibitors of cell surface uPA generation; cell surface uPA generation assay, qHTS; Potency, µM (series often up to 38.3 µM), for the others: top-dose activity change, negative = inhibition, hits mostly inhibitors; 0.31% of 330,000 active; active = well fitted inhibition curve with a large enough effect; inconclusive = small, poorly fitted or top-dose-only effect; inactive = no such curve, though single readings can be large or run the other way; tested in mouse RAW 264.7 cells; also: potency is read from the fitted curve at half-maximal effect; % is scaled to controls: 0 for no effect and ±100 for the full control effect; nearly all actives have a fitted effect of over 55% in size
DT40 TDP1 CPT – DT40-hTDP1 cell growth loss with CPT | chicken DT40 Tdp1-/-;hTDP1 cells + 20 nM CPT, ATP luminescence, 48 h | 12% of 420,000 active | Potency, µM (top dose mostly 46.2 µM), without a hit: at the highest dose activity change, negative = growth inhibition, most hits filed as inhibitors; also: potency is read from the fitted curve at half-maximal effect; % is scaled to controls: 0 for no effect and ±100 for the full control effect; nearly all actives have a fitted effect of over 55% in size
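Chicken DT40 Tdp1-/- cells stably complemented with human TDP1 were seeded at 400 cells/well in medium containing 20 nM camptothecin, exposed to pin-transferred compounds, and grown at 37 °C for at least 48 hr. Viability was read as ATP luminescence.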
TDP1 inh – blocks human tyrosyl-DNA phosphodiesterase 1. Q9NUW8. 0.28% of 350,000 active. recombinant TDP1, AlphaScreen DNA substrate cleavage. AID 485290. Potency, µM (highest dose often 130 µM), for inactives: at the top dose activity change, negative = inhibition, actives largely listed as inhibitors; also: potency is read from the fitted curve at half-maximal effect; % is scaled to controls: 0 for no effect and ±100 for the full control effect; nearly all actives have a fitted effect of over 40% in size
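Enzyme-compound mixtures sat 15 min at room temperature, followed by a 5 min reaction with 15 nM final substrate and 10 min with AlphaScreen beads. Recombinant human Tdp1 was used at 1 nM final.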
* = called active by the depositor; ? = inconclusive; nt = not tested or not shown. Unless noted, calls follow the shape of the dose curve; as a rule, active = well fitted curve in the direction sought with a large enough effect; inconclusive = small, poorly fitted or top-dose-only effect, or another doubt; inactive = no such curve, though single readings can be large; an effect the other way counts as inactive or inconclusive.

Results follow in this order: TDP1 cell noCPT, uPA surface inh, miR-21 reporter, DT40 TDP1 CPT, TDP1 inh
NS(=O)(=O)c1ccc(CCNC(=O)Nc2ccc(Cl)c(Cl)c2)cc1
→ 23.1µM*, nt, 16.5%, ?, 2.3%
NS(=O)(=O)c1ccc(CCNS(=O)(=O)c2cccc(C(=O)O)c2)cc1
→ 1.3%, 5.5%, -8.4%, 1.0%, 79.4µM*
NS(=O)(=O)c1ccc(CCNC(=O)c2ccc3nccnc3c2)cc1
→ -23.1%, 5.2%, nt, -7.6%, 7.94µM*
NS(=O)(=O)c1ccc(CCNS(=O)(=O)c2ccccc2)cc1
→ -11.5%, -1.7%, 3.2%, -4.1%, 3.1%
CC(=O)c1ccc(OCc2cc(C(=O)NCC3CCCCO3)no2)cc1 (stereo not drawn)
→ -8.3%, -2.8%, -14.5%, ?, 5.4%
OCC[C@@H]1C[C@@H](O)[C@H](O)[C@@]2(Cc3ccccc3CCO2)O1
→ -4.5%, -3.2%, -0.3%, 10.8%, nt
C/C(=N\Nc1cc(C(F)(F)F)ccc1Cl)c1ccccc1O
→ ?, -1.8%, 0.3%, 3.5%, 0.0%
Cc1c(Cl)cccc1NC(=O)CSCc1cc(=O)[nH][nH]1
→ -31.7%, 2.8%, -3.1%, -5.8%, 10.9%
CC1(c2ccc(Cl)cc2)NC(=O)N(CN2CCOCC2)C1=O (stereo not drawn)
→ -11.5%, 1.2%, 0.9%, -0.2%, -2.3%
CC(C)(C)c1ccc(NC(=O)COc2ccc(-n3ccnc3)cc2)cc1
→ 16.4µM*, -2.1%, 27.4%, 14.6µM*, 4.5%
CC(C)(C)OC(=O)NCCCCCNC(=O)c1[nH]cnc1C(=O)Nc1ccccc1
→ 14.6µM*, -3.1%, nt, ?, -0.2%
CCOC(=O)c1ccc(NC(=O)c2nc[nH]c2C(=O)NCCCNC(=O)c2[nH]cnc2C(=O)Nc2ccc(C(=O)OCC)cc2)cc1
→ -11.0%, -8.4%, nt, -0.3%, 0.1%
Cc1ccc(NC(=O)c2nc[nH]c2C(=O)NCCCCCNC(=O)OC(C)(C)C)cc1
→ 16.4µM*, -1.0%, nt, ?, 0.7%
CC(C)(C)OC(=O)NCCCCCNC(=O)c1[nH]cnc1C(=O)Nc1ccc(Cl)cc1
→ 14.6µM*, 6.31µM*, nt, ?, -0.4%
CC(C)(C)OC(=O)[C@H](Cc1ccccc1)NC(=O)c1nc[nH]c1C(=O)NCCCCCN
→ ?, 14.1%, nt, -20.9%, -0.7%
O=C(CNC(=O)c1ccc(-c2ccccc2)cc1)OC(C(=O)Nc1cc(C(F)(F)F)ccc1Cl)c1ccccc1 (stereo not drawn)
→ nt, nt, nt, nt, 1.0%
CC(=O)c1sc(NC(=O)C(C)Oc2ccc3c(C)cc(=O)oc3c2)nc1C (stereo not drawn)
→ ?, -0.9%, 5.6%, -14.1%, 2.9%
N#Cc1c([N+](=O)[O-])cc([N+](=O)[O-])cc1S(=O)(=O)Cc1ccccc1
→ 0.184µM*, -9.9%, nt, 0.206µM*, 5.4%
CCCCNC(=O)C1CCCN1C(=O)NC1CCCCC1 (stereo not drawn)
→ -3.0%, 1.4%, -9.4%, 6.8%, 2.4%
O=C(CCNC(=O)c1ccco1)NC(Cc1c[nH]c2ccccc12)C(=O)O (stereo not drawn)
→ 0.6%, 20.7%, nt, 2.6%, 0.9%

A few values from above.
For TDP1 inh, CCCCNC(=O)C1CCCN1C(=O)NC1CCCCC1 (stereo not drawn) has the entry 2.4%
For TDP1 inh, CC(C)(C)OC(=O)NCCCCCNC(=O)c1[nH]cnc1C(=O)Nc1ccc(Cl)cc1 has the entry -0.4%
For TDP1 cell noCPT, NS(=O)(=O)c1ccc(CCNC(=O)Nc2ccc(Cl)c(Cl)c2)cc1 has the entry 23.1µM*
For DT40 TDP1 CPT, CCOC(=O)c1ccc(NC(=O)c2nc[nH]c2C(=O)NCCCNC(=O)c2[nH]cnc2C(=O)Nc2ccc(C(=O)OCC)cc2)cc1 has the entry -0.3%

Carrying on.
Results follow in this order: TDP1 cell noCPT, uPA surface inh, miR-21 reporter, DT40 TDP1 CPT, TDP1 inh
Cc1ccc(C2CC(c3ccccc3)=NN2C(=S)Nc2ccccc2)o1 (stereo not drawn)
→ 5.8µM*, -9.3%, 14.6%, 3.26µM*, -7.8%
CCCOc1ccc(C(=O)NCCCn2ccnc2)cc1
→ 14.0%, -5.3%, -2.6%, 4.1%, 2.0%
CC(=O)C1=C(O)C(=O)N(Cc2ccccc2)C1c1cccs1 (stereo not drawn)
→ -14.2%, -0.7%, -11.7%, -0.3%, -1.9%
O=C1NC(=O)C2C1C(c1cccs1)NN2Cc1ccccc1 (stereo not drawn)
→ 29.1µM*, -0.7%, -1.2%, 29.1µM*, 2.7%
O=C(Nc1ccccc1C(=O)Nc1ccccn1)c1ccc([N+](=O)[O-])cc1
→ -21.1%, -1.1%, 3.7%, -7.1%, -8.1%
O=C(Nc1ccc2c(c1)N(C1CCCC1)C(=O)c1ccccc1S2)c1ccc(F)cc1
→ ?, nt, ?, 23.1µM*, 5.4%
O=C(Nc1ccc2c(c1)N(C1CCCC1)C(=O)c1ccccc1S2)c1cccc(F)c1
→ 18.4µM*, nt, ?, ?, 4.4%

Pulled one by one from the list above (2):
Results follow in this order: TDP1 cell noCPT, uPA surface inh, miR-21 reporter, DT40 TDP1 CPT, TDP1 inh
O=C(Nc1ccc2c(c1)N(C1CCCC1)C(=O)c1ccccc1S2)c1ccc(F)cc1
→ ?, nt, ?, 23.1µM*, 5.4%
O=C(Nc1ccc2c(c1)N(C1CCCC1)C(=O)c1ccccc1S2)c1cccc(F)c1
→ 18.4µM*, nt, ?, ?, 4.4%
